Measured values from patent publication US20220218837A1, “DRUG CONJUGATE” (priority 2018, published 2022).

Experiments:
[1] = test system: MDA-MB-468 cells (EGFR++/HER2-/CD71+); test: Cell killing / cell viability, MDA-MB-468 cells; assay type: cell-based, human; details: substance alone, no partner, listed as Cetuximab-Cys-(dendron(-L-SO1861)^4)^3,9
HeLa cells (EGFR+/-) = test: Cell killing / cell viability, HeLa cells; details: read-out: IC50 cell killing, titrated + fixed 10 pM CD71mab-saporin
[2] = test system: human A431 tumor cells (xenograft; high EGFR, medium CD71, low HER2); test: A431 xenograft mouse tumor model, tumor volume; assay type: in vivo, mice; details: same groups as tumor size
Procedure: Female Balb/c nude mice were injected subcutaneously with a suspension of human A431 tumor cells. Under the skin of the mice, a human epidermal carcinoma developed in the xenograft animal tumor model. After injection of the tumor cells, the xenograft tumor was allowed to develop to a size of approximately 170-180 mm^3. The A431 tumor cells have the following characteristics: high EGFR expressors, medium CD71 expressors, low HER2 expressors.
In Table A, the results of the treatment of control mice and tumor-bearing mice are presented. Tumor-bearing mice were treated with the indicated antibodies directed to either human Her2/neu, human EGFR, or human CD71, which are cell-surface receptors on the xenograft tumor. Cetuximab was covalently conjugated with saponin SO1861. […] The ADCs trastuzumab-saporin (covalent conjugate) and anti-CD71 mAb (OKT-9, IgG)—saporin (covalent conjugate) were tested for their tumor-attacking efficacy in the mice, measured as tumor volume in time after start of the treatment with the ADCs. The dose of the ADCs was sub-optimal in the tumor model. […]
The conjugate was tested in a A431 (EGFR^++) xenograph mouse tumor model for EGFR tumor targeted cell killing as illustrated in FIG. 9-4. Dosings started at day 12 when tumors reached ˜150 mm^3 in size and tumor volume was determined after every dosing.

| Substance | cell killing activity (words) [1] | IC50 (HeLa cells (EGFR+/-)) [nM] | outcome of the animals (death/euthanasia or survival) [2] |
| --- | --- | --- | --- |
| cetuximab-Cys-(dendron(-L-SO1861)^4)^3,9: Dendron(-L-SO1861)^4 conjugated to cetuximab via cysteine residues | could not be induced | > 100 |  |
| Cetuximab-SO1861 (covalent conjugate): SO1861-EMCH covalently coupled to reduced cysteines of cetuximab |  |  | death/euthanasia |
